## Yeast mating assay B: variants of the scFv Ab-14

Source: Li et al. 2023 (doi:10.1038/s41467-023-39022-2), MIT Lincoln Laboratory and A-Alpha Bio; data file from the FLAb repository.

Antigen: PDVDLGDISGINAS, a 14-residue peptide of the SARS-CoV-2 spike HR2 region.

Each scFv is VH, three GGGGS repeats, VL, as in the parent Ab-14, and differs from it in the CDRs of the light chain only.
VH: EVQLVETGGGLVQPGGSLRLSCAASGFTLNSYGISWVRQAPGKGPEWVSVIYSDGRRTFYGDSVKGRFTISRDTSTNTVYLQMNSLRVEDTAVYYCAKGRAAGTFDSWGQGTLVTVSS
VL: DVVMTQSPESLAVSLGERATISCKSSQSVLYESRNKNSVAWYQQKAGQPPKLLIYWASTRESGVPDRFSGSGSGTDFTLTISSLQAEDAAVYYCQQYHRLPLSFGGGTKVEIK

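The parent was found by panning a naive human phage display library on the peptide. These sequences belong to a second round, designed from the earlier measurements on random variants of the parent. Group labels follow the data file (Ctrl: baseline library sampled from a position-specific scoring matrix, with some repeated check sequences; En: ensemble of fine-tuned language models; GP: Gaussian process model; HC: hill climbing; Gen: genetic algorithm; Gibbs: Gibbs sampling; a sequence that several methods proposed may carry one label only). In AlphaSeq, yeast of one mating type display the scFv and yeast of the other type display the target. After mating in shaken culture at 30 °C for 16 h, diploids were selected and their barcode pairs sequenced. Each replicate has its own calibration line, from reference interactions of the BCL2 family. The assay was run in six technical replicates.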

Each variant is given by its three light chain CDRs, as the data file delimits them; those of the parent are KSSQSVLYESRNKNSVA, WASTRES, QQYHRLPLS. The read-out is the apparent dissociation constant on a log10 scale (nM): the lower, the stronger. Replicates are averaged; those with no signal do not enter the mean. "not detected" means that the variant was in the library but no mating with the target was seen in any replicate; the authors take this as a sign of poor binding, and no number exists. Values of this round are not directly comparable with the first-round values of the same sequences.

| log10 Kd (nM), mean | replicates with signal | signal with controls | CDR-L1 | CDR-L2 | CDR-L3 | group |
|---|---|---|---|---|---|---|
| 2.52 | 3/6 | 1/18 | KSSQSVLYESRNKNPVA | WASTRVS | QQYHRLPLS | Ctrl |
| -0.51 | 6/6 | 0/18 | KLSQEVLFESRNKNSVA | DASTRES | QQYHRLPLS | GP_HC |
| -0.16 | 6/6 | 3/18 | KFSQSVLYESRTKNSVA | NGSTRES | QQYHQLPLS | GP_HC |
| 0.04 | 6/6 | 2/18 | KLSQSDLYESRAKNSVA | EASTRES | QQYHRLPLS | GP_Gen |
| 1.42 | 6/6 | 0/18 | IISQVDAYESRNKNSIA | DQSTRGQ | QQYDRLPLS | En_HC |
| 1.99 | 5/6 | 0/18 | KVSEFMRGLMMRKDSIA | DNETRNS | QQYDRLPLS | En_Gen |
| 0.77 | 6/6 | 1/18 | KSSQLVDFESRNKNSVA | DASTRES | QQYHRLPLS | GP_HC |
| 0.63 | 6/6 | 1/18 | KLSMSGLYESRNWNSVA | EASLRES | QDYHRLPLS | GP_Gibbs |
| 1.35 | 4/6 | 0/18 | MISNVMNTLTRVGNNVA | DLTEREV | QQYFRLPLS | En_Gen |
| 0.52 | 6/6 | 0/18 | KSLQSVGYEQRNKNSVA | HASTRED | QQYHRLPLS | GP_HC |
| 0.34 | 6/6 | 1/18 | KSSQEYHYESRNKNSVA | GASTRES | QQYHRLPLS | GP_HC |
| 0.12 | 6/6 | 1/18 | KLYQSVLYESRQKNSVA | NASQRES | QQYHRLPLS | GP_Gen |
| 1.25 | 6/6 | 0/18 | KSSQEVLYESFNKNSVA | DASTRES | QEYHRMPLS | Ctrl |
| 0.00 | 6/6 | 1/18 | KESQSWVYESRNKNSVA | GASTRES | QQYHRLPLS | GP_HC |
| 2.01 | 3/6 | 1/18 | KSSQSVLTESRNKNSVA | WASTRED | QQYHRYPLS | Ctrl |
| 0.91 | 6/6 | 0/18 | KCPQSVWQEERQKNSVA | NASQREQ | QQYHRLPLS | GP_Gibbs |
| 1.33 | 6/6 | 1/18 | QVQAFNEHSKDQTQAMA | EATMRDA | QQYERLPLS | En_Gibbs |
| -0.10 | 6/6 | 0/18 | KFSQSNLYEDRMQNNVA | NASQREQ | QQYHRLPLS | GP_Gibbs |
| 0.70 | 6/6 | 1/18 | KVSQSEWYESRMKNSVA | NASYREQ | QQYHRLPLQ | GP_Gibbs |
| 0.87 | 6/6 | 2/18 | KLRQVTGYEMYAKNSVA | QTSTRVS | QDYHRLPLS | En_HC |
| 0.22 | 6/6 | 3/18 | KVSQSNLYESRNKNSVA | NASTRMS | QQYHRLPLS | GP_Gen |
| 0.06 | 6/6 | 1/18 | KMSQSVWYEQRNFNSVA | NGSTRFS | QQYHRLPLS | GP_Gibbs |
| 0.54 | 6/6 | 1/18 | KSLESLVGESRNKNSVA | QAHTRES | QSYHRLPLS | Ctrl |
| 1.70 | 6/6 | 0/18 | MLTNETDGNYGRNNSVA | NAEELMT | QAYFRLPIT | En_Gibbs |
| -0.26 | 6/6 | 0/18 | KLYQSMGYLSRNKDSIA | DMSRREN | QQYHRLPLS | En_HC |
| 0.36 | 6/6 | 1/18 | KLQNFSQEDNKMWNNIA | DMTMKHT | QQYNRLPLE | En_Gibbs |
| 1.62 | 6/6 | 0/18 | KSSQSVLYESRNKNSLA | DASTRES | QQYHRWPLS | Ctrl |
| -0.32 | 6/6 | 1/18 | MVTQMAMTGMKNKRSVA | NASTREN | QQYHRLPLI | En_Gen |
| 1.42 | 6/6 | 2/18 | KLSGLMQSSKFAKNNVA | ENNTREK | QQYERLPLS | En_Gen |
| 1.67 | 6/6 | 2/18 | HLSDLVKEESRNTNSVA | DNSTRGS | QQYDRLPLS | En_HC |
| 0.16 | 6/6 | 2/18 | KSPQSHDYESRNKNSVA | NASERES | QQYHRLPLS | GP_Gibbs |
| 0.53 | 6/6 | 2/18 | FIMHFGEESNLNSKNIA | AKNTRVD | QQYNRLPLS | En_Gibbs |
| 2.16 | 2/6 | 0/18 | KSSQSVLYESRNYNSVA | WASTRES | QQYHRLPLS | Ctrl |
| 1.15 | 6/6 | 1/18 | MMSQVTGQGQRHRNNVA | QTSVREP | QQYDRLPLI | En_Gen |
| 0.02 | 6/6 | 0/18 | HLSQSADLESVHKNSIA | DLMTRES | QQYHRLPLS | En_HC |
| 1.04 | 6/6 | 0/18 | KSSISMLYEERMDNSVA | NASQRES | QQYHRLPLS | GP_Gibbs |
| -0.05 | 6/6 | 1/18 | KLQQQSEYGSRNKNSVA | SASTREQ | QQYHRLPLS | GP_Gibbs |
| 0.47 | 6/6 | 3/18 | MVTQMAMSGMTNKRSVA | NASTRED | QQYHRLPLI | En_Gen |
| 0.15 | 6/6 | 1/18 | KLMQSVCMESRNKNSVA | NASKREE | QQYHRLPLS | GP_Gibbs |
| 1.32 | 6/6 | 1/18 | KLKIEVVDNQQLRNSIA | ENELRAM | QQYLSLPLS | En_Gibbs |
| 0.35 | 6/6 | 4/18 | KSSWSPLYESRNKNSVA | DASTRES | QQYHRLPLS | GP_HC |
| -0.24 | 6/6 | 2/18 | KLHQSDLYESRNINSVA | NASQRCS | QQYHRLPLS | GP_Gibbs |
| 0.88 | 6/6 | 0/18 | IISQSMLYESATHNSIA | QQSTREE | QQYHHLPLS | En_HC |
| 1.08 | 6/6 | 1/18 | HISMSVGMTSFNKNSVA | ENSTREN | QQYDRLPLS | En_HC |
| 0.45 | 6/6 | 2/18 | KARQSNLYESRNQNSVA | NASQRLE | QQYHRLPLS | GP_Gibbs |
| 0.09 | 6/6 | 2/18 | KWSQSVKMESRNKNSVA | DASTRES | QQYHRLPLS | GP_HC |
| 2.31 | 1/6 | 0/18 | KSSQSVLYESRNKNSVA | WASARES | QQYHRLPLS | Ctrl |
| 1.63 | 1/6 | 0/18 | KVYDPMVEWYANQSAVA | EHAEAQH | QQYDRLPLS | En_Gibbs |
| 0.13 | 6/6 | 0/18 | SISGFMKSLAAHRNSVA | DMTNREN | QQYDRLPLS | En_Gen |
| 0.86 | 6/6 | 0/18 | LSSQSVLYESRNKNHVA | NASTRES | QQYHRLPLS | Ctrl |
| not detected | 0/6 | 1/18 | VLMGQGADSIKHANSIA | NVDLVDM | QQYAHLPLS | En_Gibbs |
| 1.89 | 6/6 | 0/18 | MLSQMWGIGMKAKNSVA | QASMRFN | QQYDRLPLI | En_Gen |

Repeated from above, the 7 best binders with a signal in all replicates:

{"CDR-L1": "KLSQEVLFESRNKNSVA", "CDR-L2": "DASTRES", "CDR-L3": "QQYHRLPLS", "group": "GP_HC", "log10 Kd (nM), mean": "-0.51", "replicates with signal": "6/6", "signal with controls": "0/18"}
{"CDR-L1": "MVTQMAMTGMKNKRSVA", "CDR-L2": "NASTREN", "CDR-L3": "QQYHRLPLI", "group": "En_Gen", "log10 Kd (nM), mean": "-0.32", "replicates with signal": "6/6", "signal with controls": "1/18"}
{"CDR-L1": "KLYQSMGYLSRNKDSIA", "CDR-L2": "DMSRREN", "CDR-L3": "QQYHRLPLS", "group": "En_HC", "log10 Kd (nM), mean": "-0.26", "replicates with signal": "6/6", "signal with controls": "0/18"}
{"CDR-L1": "KLHQSDLYESRNINSVA", "CDR-L2": "NASQRCS", "CDR-L3": "QQYHRLPLS", "group": "GP_Gibbs", "log10 Kd (nM), mean": "-0.24", "replicates with signal": "6/6", "signal with controls": "2/18"}
{"CDR-L1": "KFSQSVLYESRTKNSVA", "CDR-L2": "NGSTRES", "CDR-L3": "QQYHQLPLS", "group": "GP_HC", "log10 Kd (nM), mean": "-0.16", "replicates with signal": "6/6", "signal with controls": "3/18"}
{"CDR-L1": "KFSQSNLYEDRMQNNVA", "CDR-L2": "NASQREQ", "CDR-L3": "QQYHRLPLS", "group": "GP_Gibbs", "log10 Kd (nM), mean": "-0.10", "replicates with signal": "6/6", "signal with controls": "0/18"}
{"CDR-L1": "KLQQQSEYGSRNKNSVA", "CDR-L2": "SASTREQ", "CDR-L3": "QQYHRLPLS", "group": "GP_Gibbs", "log10 Kd (nM), mean": "-0.05", "replicates with signal": "6/6", "signal with controls": "1/18"}

The authors averaged sequences with at least three values out of six and counted those with two or fewer as poor binders. The parent sequence was in this pool as ten entries: three were never detected, three once, and four in most replicates, with averages from 0.34 to 2.37. Nonspecific signal, from three strains lacking the peptide, appeared in 4% of pairings of all light chain designs, centred on 2.64 (5% of these signals below 1.59); values are not corrected for it. The control count says in how many pairings with the empty strains this scFv gave a signal.